The test relates to LNCaP cells. In words: Growth response (MTS cell proliferation assay), LNCaP. In kind it is cell-based. The conditions noted are these: Homo sapiens, 144 h, MTS assay 6 days after treatment. As to the method: Human prostate cancer cell lines LNCaP (American Type Culture Collection, Manassas, Va.) and LAPC-4 (kindly provided by Dr. Charles L. Sawyers; Zhu et al., 1999, Endocrinology, 140:5451-4) were maintained in RPMI 1640 (Mediatech, Hercules, Calif.) containing 5% FBS (Biofluids, Rockville, Md.) at 37° C. and 5% CO2. To avoid potential interference of existing steroids in FBS, the media were first replaced by serum-free RPMI 1640 for 24 h. Cells were then cultured in RPMI 1640 with 5% charcoalstripped FBS supplemented with or without 1 nM Mib (New England Nuclear, Boston, Mass.), a nomnetabolizable, synthetic androgen.
Cells were plated in 24-well plates at 2×10^4 cells/well. Forty-eight h after plating, cells were treated with celecoxib or nimesulide (LKT Lab, St. Paul, Minn.) and other NSAIDs as shown in Table 1 at different doses in the presence or absence of Mib. MTS assay (Promega, Madison, Wis.) was performed to determine cell proliferation 6 days after the treatment. To measure secreted PSA and hK2 levels, 400 μl of spent medium from cells treated for 6 days were collected. PSA and hK2 proteins levels were determined using specific immunoassays (Mayo Immunochemical Core Facility). These measurements were used to the calculate 50% inhibitory concentration (IC50) of each of the NSAIDs.

The term IC50 denotes the midpoint of a concentration-inhibition curve. `Cc1ccc(-c2cc(C(F)(F)F)nn2-c2ccc(S(N)(=O)=O)cc2)cc1` [Celecoxib] came in with a concentration for half-maximal inhibition (IC50) of 32.6 µM.

These data come from patent US20070105931A1, “Methods and compositions for inhibiting the proliferation of prostate cancer cells” (Mayo Foundation for Medical Education and Research, priority 2003, published 2007).
